Values of other authors, collected in paper PMC9820559, “Investigation of the Fuzzy Complex between RSV Nucleoprotein and Phosphoprotein to Optimize an Inhibition Assay by Fluorescence Polarization” (International Journal of Molecular Sciences, 2022).

By UniProt entry, the sequences of proteins in these tests, tags left out. Where a name states a change or a piece, a line headed by the entry shows the natural chain unless it says otherwise.
UniProt P03421: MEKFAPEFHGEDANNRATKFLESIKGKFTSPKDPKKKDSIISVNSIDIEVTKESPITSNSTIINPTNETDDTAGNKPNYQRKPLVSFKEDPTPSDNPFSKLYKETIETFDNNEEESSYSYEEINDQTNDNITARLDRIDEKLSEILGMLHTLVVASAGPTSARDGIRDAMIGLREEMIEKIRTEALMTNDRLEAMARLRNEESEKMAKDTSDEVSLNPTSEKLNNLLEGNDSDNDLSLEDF

Assays:
[1] = biological target: RSV phosphoprotein P12 peptide C-terminal 12-mer (Human respiratory syncytial virus) (UniProt P03421); experiment: NMR; settings: cited from earlier work
[2] = biological target: RSV phosphoprotein P2 peptide C-terminal 2-mer (Human respiratory syncytial virus) (UniProt P03421); experiment: NMR; settings: cited from earlier work

For “RSV nucleoprotein NTD (from UniProt P03418)”, the Kd [1] is listed as 0.054 mM and the Kd [2] is listed as 4.2 mM.
